We go through six compounds from ChEMBL document CHEMBL5046293 (J Med Chem, 2022).

Chains of the proteins cited; added tags and fusions are not shown. Lines headed by an entry give the natural chain unless they say otherwise; changes in a name come on top.
UniProt P22303: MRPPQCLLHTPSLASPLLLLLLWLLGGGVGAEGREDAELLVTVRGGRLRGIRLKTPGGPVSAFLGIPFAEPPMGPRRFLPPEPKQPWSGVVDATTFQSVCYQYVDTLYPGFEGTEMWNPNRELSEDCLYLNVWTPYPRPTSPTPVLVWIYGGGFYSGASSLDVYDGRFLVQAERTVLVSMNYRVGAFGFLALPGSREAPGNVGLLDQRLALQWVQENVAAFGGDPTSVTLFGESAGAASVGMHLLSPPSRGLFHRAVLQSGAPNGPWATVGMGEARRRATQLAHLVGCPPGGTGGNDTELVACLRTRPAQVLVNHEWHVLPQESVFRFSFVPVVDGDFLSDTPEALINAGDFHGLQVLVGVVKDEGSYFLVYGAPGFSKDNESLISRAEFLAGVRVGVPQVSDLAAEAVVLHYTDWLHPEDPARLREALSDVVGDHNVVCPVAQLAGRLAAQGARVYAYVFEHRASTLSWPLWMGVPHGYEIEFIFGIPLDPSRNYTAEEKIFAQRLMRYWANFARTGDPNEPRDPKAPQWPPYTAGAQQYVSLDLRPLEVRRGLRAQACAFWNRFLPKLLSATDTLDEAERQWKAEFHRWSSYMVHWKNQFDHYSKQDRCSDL

SMILES strings stand for the structures.

Assay [1] deals with Acetylcholinesterase (Homo sapiens) (UniProt P22303). Kind of assay: Inhibition of recombinant His-TEV-tagged human AChE expressed in CHO-K1 cells using acetylthiocholine iodide as substrate at 5 mM measured for 6 mins by Ellman's method relative to control. (In general: DTNB colorimetry detects thiols as they appear.)
Assay [2] has the same target. The experiment in a line: Reactivation of NIMP-inhibited recombinant His-TEV-tagged human AChE expressed in CHO-K1 cells assessed as reactivation constant, KD by measuring thiophenol levels by UV-vis absorption spectroscopy. The note with it: filed as activator.
Assay [3] shares this target. The experiment in a line: Reactivation of NIMP-inhibited recombinant His-TEV-tagged human AChE expressed in CHO-K1 cells assessed as reactivation constant, Kr by measuring thiophenol levels by UV-vis absorption spectroscopy. As to conditions: filed as activator.
Assay [4] shares this target. The experiment in a line: Reactivation of NEDPA-inhibited recombinant His-TEV-tagged human AChE expressed in CHO-K1 cells assessed as reactivation constant, Kr2 by measuring thiophenol levels by UV-vis absorption spectroscopy. The note with it: filed as activator.
The target is the same in assay [5]. The experiment in a line: Reactivation of NEMP-inhibited recombinant His-TEV-tagged human AChE expressed in CHO-K1 cells assessed as reactivation constant, KD by measuring thiophenol levels by UV-vis absorption spectroscopy. As to conditions: filed as activator.
Assay [6] has the same target. Kind of assay: Reactivation of VX-phosphylated human AChE in ChE-inactivated mouse plasma using acetylthiocholine as substrate upto 500 uM incubated for 30 mins by Ellman's method relative to control. As to conditions: dose microM <=500, time 30.0 min.

A word on the inhibition: it is the relative decrease from the control value, in per cent. With `OC[C@H]1O[C@@H](OCCCCc2ccc(O)c(/C=N/O)n2)[C@H](O)[C@@H](O)[C@@H]1O`, the inhibition in assay [1] was 97%. The figures for the K in assay [2] and in assay [3] were 1 mM and 0.2 min⁻¹, respectively.
For the compound `C[n+]1ccccc1C=NO`, the K in assay [2] came to 0.2 mM; in assay [3] it was 0.24 min⁻¹.
Regarding `OC[C@H]1O[C@@H](OCCCCc2cn(CCCc3ccc(O)c(/C=N/O)n3)nn2)[C@H](O)[C@@H](O)[C@@H]1O`, the figures for the K in assay [2] and in assay [3] were 13 mM and 0.2 min⁻¹, respectively.
For the compound `OC[C@H]1O[C@@H](OCCCc2ccc(O)c(/C=N/O)n2)[C@H](O)[C@@H](O)[C@@H]1O`, the K is 2 mM/min in assay [4], 2 mM in assay [2] and 0.2 min⁻¹ in assay [3].
As usually defined, the Emax is the maximal effect, on the per cent scale that the assay sets. For the compound `OC[C@H]1O[C@H](OCCCCc2cn(CCCCc3ccc(O)c(/C=N/O)n3)nn2)[C@H](O)[C@@H](O)[C@@H]1O`, the values for the K in assay [5], in assay [2] and in assay [3] were 1 mM, 2 mM and 0.4 min⁻¹, respectively. Besides, the maximal effect (Emax) in assay [6] was 3.3%.
Consider `OC[C@H]1O[C@@H](OCCCCc2cn(CCCCc3ccc(O)c(/C=N/O)n3)nn2)[C@H](O)[C@@H](O)[C@@H]1O`, for which the results for the K in assay [5], in assay [2] and in assay [3] were 1 mM, 2 mM and 0.7 min⁻¹, respectively. Moreover, in assay [6], the Emax amounted to 2.5%.
